Measured values: US10550114B2, “Kinase inhibitors and their use in cancer therapy” (TECHNISCHE UNIVERSITÄT DORTMUND, priority 2015, dated 2020)

Tests used:
[1] = test system: remaining 97 kinases; conditions: 1 μM compound, apparent ATP KM
[2] = test system: GIST-T1 cells; test: Western blot in gastrointestinal stromal tumor cells; assay type: cell-based, human; conditions: GIST-T1, 24 hours
Description: For GIST-T1 cells protein lysates were prepared from cell line monolayers according to standard protocols as described in A. Duensing, F. Medeiros, B. McConarty, N. E. Joseph, D. Panigrahy, S. Singer, C. D. Fletcher, G. D. Demetri, J. A. Fletcher, Oncogene 2004, 23, 3999-4006. Protein concentrations were determined with the Bio-Rad Protein Assay (Bio-Rad Laboratories, Hercules, Calif.). Electrophoresis and immunoblotting were carried out as described in B. P. Rubin, S. Singer, C. Tsao, A. Duensing, M. L. Lux, R. Ruiz, M. K. Hibbard, C. J. Chen, S. Xiao, D. A. Tuveson, G. D. Demetri, C. D. Fletcher, J. A. Fletcher, Cancer Res. 2001, 61, 8118-8121. Changes in protein expression and phosphorylation as visualized by chemiluminescence were captured and quantified using a FUJI LAS3000 system with Science Lab 2001 ImageGauge 4.0 software (Fujifilm Medial Systems, Stamford Conn., USA).
Controls were treated with dimethyl sulfoxide (DMSO).

C=CC(=O)Nc1ccc2[nH]c(=O)n(C3CCN(Cc4ccc(-c5nc6cc[nH]c(=O)c6cc5-c5ccccc5)cc4)CC3)c2c1 [Compound 1a, N-(2-oxo-3-(1-(4-(5-oxo-3-phenyl-5,6-dihydro-1,6-naphthyridin-2-yl)benzyl)piperidin-4-yl)-2,3-dihydro-1H-benzo[d]imidazol-5-yl) acrylamide]
% inhibition remaining 97 kinases [1]: less than 40% | phosphorylation of c-KIT and MAPK (Erk1/2) [2]: not affected
